Assays:
Test in all cases: IC50 assay, BPS Biosciences fluorescence assay
Assay type in all cases: biochemical
HDAC4 = HDAC4 (Homo sapiens (Human), UniProt P56524)
HDAC5 = HDAC5 (Homo sapiens (Human), UniProt Q9UQL6)
HDAC8 = HDAC8 (Homo sapiens (Human), UniProt Q9BY41)
HDAC9 = HDAC9 (Homo sapiens (Human), UniProt Q9UKV0)
HDAC11 = HDAC11 (Homo sapiens (Human), UniProt Q96DB2)

Amino acid sequences for entries named in this document (tags omitted). A change or cut given only in a name is not applied to a line headed by its entry.
UniProt P56524: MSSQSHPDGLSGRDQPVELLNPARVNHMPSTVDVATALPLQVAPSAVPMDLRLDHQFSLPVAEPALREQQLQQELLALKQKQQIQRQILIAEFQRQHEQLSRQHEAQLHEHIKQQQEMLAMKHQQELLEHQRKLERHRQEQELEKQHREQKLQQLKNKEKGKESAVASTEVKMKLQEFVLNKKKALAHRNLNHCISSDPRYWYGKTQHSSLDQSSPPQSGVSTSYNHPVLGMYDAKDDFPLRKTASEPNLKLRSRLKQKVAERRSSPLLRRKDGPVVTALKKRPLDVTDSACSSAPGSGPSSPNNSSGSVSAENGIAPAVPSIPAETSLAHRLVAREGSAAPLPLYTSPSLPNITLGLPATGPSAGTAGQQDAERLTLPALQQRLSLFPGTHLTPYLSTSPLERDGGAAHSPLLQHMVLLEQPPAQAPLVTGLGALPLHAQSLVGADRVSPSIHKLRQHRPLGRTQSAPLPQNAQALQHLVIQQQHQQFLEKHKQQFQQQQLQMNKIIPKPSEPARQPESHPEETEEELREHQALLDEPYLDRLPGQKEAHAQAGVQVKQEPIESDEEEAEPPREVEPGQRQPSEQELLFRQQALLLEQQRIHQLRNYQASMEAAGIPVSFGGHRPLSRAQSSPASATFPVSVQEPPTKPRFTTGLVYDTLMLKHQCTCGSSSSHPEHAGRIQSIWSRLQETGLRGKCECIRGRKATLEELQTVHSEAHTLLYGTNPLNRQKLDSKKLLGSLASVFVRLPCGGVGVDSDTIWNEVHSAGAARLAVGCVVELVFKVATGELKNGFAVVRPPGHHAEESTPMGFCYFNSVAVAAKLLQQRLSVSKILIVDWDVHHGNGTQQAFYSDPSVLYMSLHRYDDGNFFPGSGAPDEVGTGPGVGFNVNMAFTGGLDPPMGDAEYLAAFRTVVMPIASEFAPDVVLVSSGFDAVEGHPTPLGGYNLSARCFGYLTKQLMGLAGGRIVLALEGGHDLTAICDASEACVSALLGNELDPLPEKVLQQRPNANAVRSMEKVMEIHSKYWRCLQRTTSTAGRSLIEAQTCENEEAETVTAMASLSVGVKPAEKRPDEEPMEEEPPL
UniProt Q9UQL6: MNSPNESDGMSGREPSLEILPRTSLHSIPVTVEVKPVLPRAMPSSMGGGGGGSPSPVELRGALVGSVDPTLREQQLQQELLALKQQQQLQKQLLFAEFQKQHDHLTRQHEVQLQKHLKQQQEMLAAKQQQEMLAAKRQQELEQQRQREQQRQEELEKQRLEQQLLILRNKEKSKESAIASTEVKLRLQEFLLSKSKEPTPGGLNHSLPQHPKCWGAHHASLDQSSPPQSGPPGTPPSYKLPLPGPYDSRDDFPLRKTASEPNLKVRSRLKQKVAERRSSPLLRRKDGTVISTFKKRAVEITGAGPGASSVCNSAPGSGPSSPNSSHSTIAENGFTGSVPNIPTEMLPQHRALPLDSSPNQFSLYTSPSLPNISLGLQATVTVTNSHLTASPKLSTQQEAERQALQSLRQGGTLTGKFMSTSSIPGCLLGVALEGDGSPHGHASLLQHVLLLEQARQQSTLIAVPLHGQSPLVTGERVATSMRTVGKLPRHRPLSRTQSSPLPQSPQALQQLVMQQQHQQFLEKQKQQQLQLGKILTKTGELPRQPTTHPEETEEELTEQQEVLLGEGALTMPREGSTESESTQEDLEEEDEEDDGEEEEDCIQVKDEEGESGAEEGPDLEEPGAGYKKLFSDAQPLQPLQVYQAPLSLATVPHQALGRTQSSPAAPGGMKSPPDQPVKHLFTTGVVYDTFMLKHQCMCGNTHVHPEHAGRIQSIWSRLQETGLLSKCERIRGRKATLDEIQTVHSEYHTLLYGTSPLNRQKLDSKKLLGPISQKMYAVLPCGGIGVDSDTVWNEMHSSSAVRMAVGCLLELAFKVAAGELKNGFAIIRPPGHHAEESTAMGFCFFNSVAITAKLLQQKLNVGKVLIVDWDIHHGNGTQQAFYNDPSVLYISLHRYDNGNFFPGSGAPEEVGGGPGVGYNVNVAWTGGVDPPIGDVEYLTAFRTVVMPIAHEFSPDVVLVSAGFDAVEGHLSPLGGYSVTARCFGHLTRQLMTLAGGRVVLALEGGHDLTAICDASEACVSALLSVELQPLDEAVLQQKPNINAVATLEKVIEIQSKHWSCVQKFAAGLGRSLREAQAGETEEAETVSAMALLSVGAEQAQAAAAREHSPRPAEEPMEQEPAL
UniProt Q9BY41: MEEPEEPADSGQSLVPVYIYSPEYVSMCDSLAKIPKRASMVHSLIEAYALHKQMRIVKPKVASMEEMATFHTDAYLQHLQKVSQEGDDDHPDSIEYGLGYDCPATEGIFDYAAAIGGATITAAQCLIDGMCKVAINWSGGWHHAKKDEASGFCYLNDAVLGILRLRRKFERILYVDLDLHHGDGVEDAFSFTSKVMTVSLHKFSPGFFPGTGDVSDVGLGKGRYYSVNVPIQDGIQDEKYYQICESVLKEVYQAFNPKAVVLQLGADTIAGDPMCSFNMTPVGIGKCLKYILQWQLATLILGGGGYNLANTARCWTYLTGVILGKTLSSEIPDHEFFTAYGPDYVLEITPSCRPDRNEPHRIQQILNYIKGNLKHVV
UniProt Q9UKV0: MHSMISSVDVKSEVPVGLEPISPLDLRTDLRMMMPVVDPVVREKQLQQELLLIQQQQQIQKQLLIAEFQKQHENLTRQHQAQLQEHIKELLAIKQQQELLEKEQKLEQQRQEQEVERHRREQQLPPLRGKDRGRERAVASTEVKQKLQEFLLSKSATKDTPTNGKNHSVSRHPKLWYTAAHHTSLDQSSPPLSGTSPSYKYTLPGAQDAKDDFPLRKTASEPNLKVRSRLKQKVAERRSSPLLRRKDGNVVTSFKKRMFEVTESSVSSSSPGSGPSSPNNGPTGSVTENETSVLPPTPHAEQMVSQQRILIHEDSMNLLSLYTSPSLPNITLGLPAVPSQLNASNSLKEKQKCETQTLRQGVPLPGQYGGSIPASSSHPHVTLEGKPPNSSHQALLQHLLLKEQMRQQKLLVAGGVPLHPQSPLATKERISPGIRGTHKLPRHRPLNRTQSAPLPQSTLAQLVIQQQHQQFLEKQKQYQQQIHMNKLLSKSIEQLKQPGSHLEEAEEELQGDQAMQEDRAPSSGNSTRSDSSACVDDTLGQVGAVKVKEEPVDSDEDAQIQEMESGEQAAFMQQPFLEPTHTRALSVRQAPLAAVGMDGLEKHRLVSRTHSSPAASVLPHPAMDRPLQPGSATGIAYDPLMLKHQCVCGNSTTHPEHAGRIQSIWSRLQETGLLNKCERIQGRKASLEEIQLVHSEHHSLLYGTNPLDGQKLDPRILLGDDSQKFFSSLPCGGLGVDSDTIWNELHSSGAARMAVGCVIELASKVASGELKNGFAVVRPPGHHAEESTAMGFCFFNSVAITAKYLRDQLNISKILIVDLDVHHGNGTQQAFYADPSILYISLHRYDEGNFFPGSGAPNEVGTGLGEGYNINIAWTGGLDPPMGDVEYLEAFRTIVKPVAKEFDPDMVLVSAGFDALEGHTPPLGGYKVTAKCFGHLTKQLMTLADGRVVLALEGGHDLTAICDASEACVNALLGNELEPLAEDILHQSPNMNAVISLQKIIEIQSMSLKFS
UniProt Q96DB2: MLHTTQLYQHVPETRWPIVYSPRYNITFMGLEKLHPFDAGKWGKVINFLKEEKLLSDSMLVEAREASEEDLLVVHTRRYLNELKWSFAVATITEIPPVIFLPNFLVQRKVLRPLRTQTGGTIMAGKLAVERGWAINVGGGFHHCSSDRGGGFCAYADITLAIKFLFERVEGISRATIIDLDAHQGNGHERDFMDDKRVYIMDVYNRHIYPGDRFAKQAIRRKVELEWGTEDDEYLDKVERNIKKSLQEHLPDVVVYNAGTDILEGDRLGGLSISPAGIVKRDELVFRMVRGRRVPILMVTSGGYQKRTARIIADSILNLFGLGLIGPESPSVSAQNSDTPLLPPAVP

TSA
IC50 (HDAC4): 2.9 µM | IC50 (HDAC5): 1.7 µM | IC50 (HDAC8): 0.546 µM | IC50 (HDAC9): 3.8 µM | IC50 (HDAC11): 10 µM
